Data taken from patent US20250108100A1, “C-TERMINAL FRAGMENT OF APOLIPOPROTEIN E AND APPLICATION THEREOF IN INHIBITING y-SECRETASE ACTIVITY” (SYNPHATEC (SHANGHAI) BIOPHARMACEUTICAL TECHNOLOGY CO., LTD., priority 2022, published 2025).

What was measured:
[1] = target: T1, PS1 (Homo sapiens, UniProt P49768); test: ApoE2-APEX2 proximity labeling of co-expressed PS1 in HEK 293T cells; assay type: binding
T1 construct: expressed in transfected cells; host or cells: HEK 293T
Method: A method for detecting protein interactions in living cells by targeting APEX2 was applied as previously described (Hung et al., 2016). Approximately 30 hours after transfection with APEX2 plasmids via Lipofectamine2000 (Invitrogen Technology), HEK 293T cells were incubated in 1 ml of complete medium with or without 250 uM biotinphenol (BP) for 30 minutes at 37° C. Cells were treated with 1 mM H2O2 for 1 min and cells were washed 3 times in quencher solution (10 mM sodium ascorbate, 5 mM Trolox and 10 mM sodium azide solution in 1×DPBS). Cells were lysed in RIPA lysis buffer (1× protein inhibitor cocktail, 1 mM PMSF and 10 mM sodium ascorbate, 5 mM Trolox and 10 mM sodium azide). The lysate was sonicated and centrifuged on ice (12,000×g, 4° C., 10 min), and the supernatant was incubated with streptavidin magnetic beads overnight at 4° C. The beads were collected using a magnetic rack and washed with a series of buffers (twice with RIPA buffer, once with 1M KCl, once with 0.1M Na2CO3, twice with 2 M urea in 10 mM Tris-HCl, pH 8.0, and twice with RIPA lysis buffer. Biotinylated proteins were eluted from the beads by boiling each sample in loading buffer comprising 2 mM biotin and 20 mM DTT for 10 min, and the eluates were collected. Samples proceed to Western blot.

[2] = target: T2, human γ-secretase (Homo sapiens, UniProt P49768); test: Purified system: cleavage of purified β-CTF by purified γ-secretase to Aβ40 (ELISA); assay type: biochemical; details: purified proteins at 2.5 μM
T2 construct: full-length PS1, FL-PS1; N-terminal fragment of PS1, PS1 NTF; C-terminal fragment of PS1, PS1 CTF; made in house; host or cells: HEK 293T

Row | Substance | biotinylation of co-expressed PS1 [1] | Aβ40 production from β-CTF by γ-secretase [2]
1 | ApoE2-APEX2: ApoE2 fused to APEX2 (ascorbate peroxidase 2) for proximity labeling | biotinylated | –
2 | ApoE2: human apolipoprotein E2, full-length 299 amino acid residues, SEQ ID NO: 12 | – | can significantly inhibit the production of Aβ; also recorded: can inhibit Aβ40

“Also recorded” adds a separate entry of the source.
